The results in this text go back to patent US20120322768A1, “COMPOUNDS, COMPOSITIONS AND METHODS FOR TREATING PROTOZOAN INFECTIONS” (QUEEN MARY & WESTFIELD COLLEGE, priority 2009, published 2012).

Each structure is given as a SMILES string.

For the first assay, the target named is T1, T. brucei NTR (TbNTR) (Trypanosoma brucei, UniProt Q57XU3).
T1 sequence (Q57XU3 85-320 limits assumed): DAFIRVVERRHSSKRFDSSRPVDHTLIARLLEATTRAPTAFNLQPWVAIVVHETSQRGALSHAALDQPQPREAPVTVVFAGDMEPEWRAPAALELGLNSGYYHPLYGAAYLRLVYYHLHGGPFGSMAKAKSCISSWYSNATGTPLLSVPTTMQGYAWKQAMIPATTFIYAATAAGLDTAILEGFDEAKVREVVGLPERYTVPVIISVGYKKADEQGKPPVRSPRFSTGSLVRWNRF
Put plainly: TbNTR enzyme activity by NADH oxidation (absorbance at 340 nm). Type of assay: biochemical. The protocol: A DNA fragment encoding for the catalytic domain of T. brucei NTR (TbNTR) was amplified from genomic DNA with the primers ggatcc[…] and gaattc[…]; lower-case italics correspond to restriction sites incorporated into the primers to facilitate cloning. The fragment was digested with BamHI/HindIII then cloned into the corresponding sites of the vector pTrcHis-C (Invitrogen). A 2 litre E. coli BL-21+ pTrcHis-TbNTR culture was grown at 37° C. for 2 hours with aeration. Protein expression was then induced by IPTG, the culture incubated overnight at 16° C. and the cells harvested by centrifugation. […] The elution steps were carried out in the presence of 0.5% Triton X-100 and protease inhibitors (Roche). Fractions were analysed by SDS-PAGE and protein concentrations determined by BCA protein assay system (Pierce).
Enzyme activity was measured by following the change in absorbance at 340 nm due to NADH oxidation (34, 35). A reaction mixture (1 ml) containing 50 mM Tris-Cl pH 7.0, 100 μM NADH and NBPM (Tables 1 and 2) was incubated at room temperature for 5 min. The background rate of NADH oxidation was determined and the reaction initiated by the addition of 20 μg TbNTR. The enzyme activity was calculated using c of 6,220 M^−1 cm^−1. The absorbance spectrum (320-600 nm) for each NBPM was determined before. At the concentration ranges used no significant signal was detected at 340 nm for any of the drugs tested.
With `NP(=O)(OCc1ccc([N+](=O)[O-])cc1F)N(CCCl)CCCl` (stereo not drawn) [LH32, 2-Fluoro-4-nitrobenzyl phosphoramide mustard], the “Activity (Vmax)” value was 832 ± 9 nmol NADH oxidized min^−1mg^−1.
Same read-out and setting: the figure for `NP(=O)(OCc1ccc([N+](=O)[O-])cc1C(F)(F)F)N(CCCl)CCCl` (stereo not drawn) [LH33, 2-Trifluoromethyl-4-nitrobenzyl phosphoramide mustard] is 654 ± 14 nmol NADH oxidized min^−1mg^−1; for `NP(=O)(OCc1ccc([N+](=O)[O-])cc1)N(CCCl)CCCl` (stereo not drawn) [LH7] it is 245.0 ± 34.5 nmol NADH oxidized min^−1mg^−1; for `NP(=O)(OCc1c(F)cc([N+](=O)[O-])cc1F)N(CCCl)CCCl` (stereo not drawn) [LH37, 2,6-Difluoro-4-nitrobenzyl phosphoramide mustard] it is 1238 ± 48 nmol NADH oxidized min^−1mg^−1.
Take `NP(=O)(OCc1ccc([N+](=O)[O-])cc1Cl)N(CCCl)CCCl` (stereo not drawn) [LH34, 2-Chloro-4-nitrobenzyl phosphoramide mustard]: the “Activity (Vmax)” value is given as 706 ± 27 nmol NADH oxidized min^−1mg^−1.

For the next assay, the system named is bloodstream form T. brucei.
Assay: not given
Type of assay: cell-based.
As for `NP(=O)(OCc1ccc([N+](=O)[O-])cc1Cl)N(CCCl)CCCl` (stereo not drawn) [LH34, 2-Chloro-4-nitrobenzyl phosphoramide mustard], the “IC50 fold lower than nifurtimox” value is listed as 225 fold.
